Target: Nxf1-EYFP (UniProt Q9UBU9)
Assay: FRET or BRET; sensitized emission FRET (normalized FRET, NFRET) in live HeLa cells; ECFP fusion donor, EYFP fusion acceptor; mean over the whole nucleus; NFRET >5% taken as a significant interaction; cells also imaged after 2 h 10 ug/ml actinomycin D

Alyref-ECFP (from UniProt Q86V81 1-257) (natural protein; other documents disagree on this pair)
NFRET: 8.14

Source: paper PMC3691119
